The structures appear in SMILES notation.

This assay has as its system NRG1-ERBB4 signaling. The experiment in a line: Nrg1-ERBB4-PIK3R1 split TEV co-culture compound screen of the NIH Clinical Collection. Conditions: sheet raw data NCC-003, compounds ranked by Z-score.

Compound `NNCCc1ccccc1.O=S(=O)(O)O` [PHENELZINE SULFATE SALT] returned a Z-SCORE of -1.05.
